Test results from patent publication US8354433B2, “Anti-inflammatory agents as virostatic compounds” (4SC AG, priority 2009, dated 2013).

Tests used:
in vitro [1] = conditions: African green monkey
in vitro [2] = conditions: African green monkey; remark: listed apart in the source

SMILES	CC50 (in vitro [1]) [nM]	CC50 (in vitro [2]) [nM]
O=C(O)C1=C(C(=O)Nc2ccc(OCc3c(F)cccc3Cl)c(Cl)c2)CCC1 [Compound 3, 2-[3-Chloro-4-(2-chloro-6-fluoro-benzyloxy)-phenylcarbamoyl]-cyclopent-1-enecarboxylic acid]	237	
O=C(O)C1=C(C(=O)Nc2c(F)c(F)c(-c3cccc(OC(F)(F)F)c3)c(F)c2F)CCC1 [Compound 4, 2-(2,3,5,6-Tetrafluoro-3′-trifluoromethoxy-biphenyl-4-ylcarbamoyl)-cyclopent-1-enecarboxylic acid]	206	
O=C(Nc1c(F)cc(-c2cccc(OC(F)(F)F)c2)cc1F)c1ccsc1C(=O)O [Compound 17, 3-(3,5-difluoro-3′-(trifluoromethoxy)biphenyl-4-ylcarbamoyl)thiophene-2-carboxylic acid]		1460
